Results from patent US11905539B2, “Isopropylmalate synthase variant and a method of producing L-leucine using the same” (dated 2024).

Tested on: Corynebacterium glutamicum ATCC14067
Test: Mortality rate of strains treated with NTG, smeared on minimal medium
Conditions: NTG 400 μg/mL final concentration, 30 minutes

CN(N=O)C(=N)N[N+](=O)[O-]
mortality rate: 99.6%
